Reference: article PMC3510444 (Molecular Cell, 2012)

Molecular target: LC3C, purified, for fluorescence anisotropy (human, UniProt Q9BXW4 1-126)
Assay: fluorescence polarisation; fluorescence anisotropy, equilibrium; purified ATG8 orthologs serially diluted and mixed with equal volumes of 100 nM FITC-labeled NDP52 peptides; PheraStar plate reader
Settings: both partners purified

B1: FITC-labeled NDP52 CLIR peptide (aa 128-141), wild type (peptide, UniProt Q13137 128-141, looked up)
peptide: ENEEDILVVTTQGE
modifications: FITC label (end not stated)
notes: NDP52, human, CLIR region, 14-mer; also called CLIR^WT
In the case of B1, the Kd is reported as 1600 nM.
